Experimental data as given in US6673802B2, “Compounds specific to adenosine A3 receptor and uses thereof” (OSI Pharmaceuticals, Inc., priority 2000, dated 2004).

Amino acid sequences for entries named in this document (tags omitted).
UniProt P0DMS8, whole entry: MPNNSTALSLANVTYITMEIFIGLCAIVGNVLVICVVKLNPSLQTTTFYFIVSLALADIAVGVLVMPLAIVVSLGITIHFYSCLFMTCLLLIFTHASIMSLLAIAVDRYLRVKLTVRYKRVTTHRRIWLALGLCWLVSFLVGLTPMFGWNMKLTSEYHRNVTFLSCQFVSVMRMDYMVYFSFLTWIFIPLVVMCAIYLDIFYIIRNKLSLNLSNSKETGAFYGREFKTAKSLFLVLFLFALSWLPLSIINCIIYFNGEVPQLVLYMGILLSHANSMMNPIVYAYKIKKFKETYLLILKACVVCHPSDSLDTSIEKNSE

Molecular target: human A3 receptor (Homo sapiens, UniProt P0DMS8)
Assay: Displacement binding, yeast membranes expressing hA3R
Settings: read-out: IC50 hA3R

Structure (SMILES): C[C@H](Cc1ccccc1)Nc1ncnc2c1ncn2[C@@H]1O[C@H](CO)[C@@H](O)[C@H]1O [(R)-PIA]
- IC50: 23.6 nM
